Test results published in patent publication US10287301B2 (Achillion Pharmaceuticals, Inc., priority 2015, dated 2019).

By UniProt entry, the sequences of proteins in these tests, tags left out. Residues count along the entry.
UniProt P00746, 26-253: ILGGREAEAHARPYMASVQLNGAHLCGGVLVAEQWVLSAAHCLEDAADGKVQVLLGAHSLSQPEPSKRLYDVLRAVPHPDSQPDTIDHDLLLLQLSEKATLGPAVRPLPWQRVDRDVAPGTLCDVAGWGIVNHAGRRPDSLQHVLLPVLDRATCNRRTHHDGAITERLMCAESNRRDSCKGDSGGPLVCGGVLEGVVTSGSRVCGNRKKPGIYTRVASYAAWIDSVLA

Biological target: Human Factor D (Homo sapiens (Human), UniProt P00746)
Test: Human Factor D Assay
Assay type: biochemical
Conditions: read-out: IC50 (Stars)
Experimental: Human Factor D (purified from human serum, Complement Technology, Inc.) at 80 nM final concentration was incubated with test compound at various concentrations for 5 minutes at room temperature in 50 mM Tris, 1M NaCl, pH 7.5. A synthetic substrate Z-L-Lys-SBzl and DTNB (Ellman's reagent) are added to final concentrations of 100 μM each. […] IC50 values are calculated by nonlinear regression of complement Factor D reaction rates as a function of test compound concentration.

Q: Which IC50 does the source give for “(2S,4R)-1-(2-(3- acetyl-5-(2- methyl-3H- imidazo[4,5- b]pyridin-6-yl)- 1H-indazol-1- yl)acetyl)-N-(6- bromopyridin-2- fluoropyrrolidine- 2-carboxamide [Compound 347]” here?
A: The IC50 was less than 1 µM.
